Measured values published in patent US11542293B2, “Sting modulator compounds, and methods of making and using” (Takeda Pharmaceutical Company Limited, priority 2017, dated 2023).

test system: THP1-Dual cells (ISG54 promoter Lucia luciferase reporter); test: THP-1 Dual Lucia Reporter Gene Assay; type: cell-based, human; details: Homo sapiens, THP1-Dual, 20 h, Lucia luciferase signal induction, 20 hours at 37° C., read-out: Cellular THP 1 EC50
Experimental: THP1-Dual™ cells (InvivoGen #thpd-nfis) were derived from the human THP-1 monocyte cell line by stable integration of the Lucia luciferase gene, a secreted luciferase reporter gene, under the control of an ISG54 (interferon-stimulated gene) minimal promoter in conjunction with five interferon (IFN)-stimulated response elements. […] The cell plates were dosed with 62.5 nL of the testing compounds, and then incubated at 37° C. for 20 hours. At the end of the incubation, 15 μL/well of the QUANTI-Luc™ (InvivoGen #rep-q1c1) were added, and luminescence was measured immediately using the LeadSeeker.
Compound concentration versus percent signal induction curves were fitted to generate EC50 values.

Nc1nc2c(ncn2[C@@H]2O[C@@H]3COP(=O)(O)O[C@H]4C[C@H](Nc5ccncn5)C[C@@H]4COP(=O)(O)O[C@@H]2[C@@H]3O)c(=O)[nH]1 [Compound I-6, 2-amino-9-[(5R,7R,8R,12aR,14R,15aS,16R)-2,10,16-trihydroxy-2,10-dioxido-14-(pyrimidin-4-ylamino)decahydro-5,8-methanocyclopenta[1][1,3,6,9,11,2,10]pentaoxadiphosphacyclotetradecin-7-yl]-1,9-dihydro-6H-purin-6-one] was tested. Which pEC50 did it give?
The pEC50 was 4.60 to 5.00.

How did the pEC50 turn out when Nc1nc2c(ncn2[C@@H]2O[C@@H]3COP(=O)(O)O[C@@H]4[C@@H](COP(=O)(O)O[C@@H]2[C@@H]3O)C[C@@H](Nc2ccncn2)[C@@H]4O)c(=O)[nH]1 [Compound I-7, 2-amino-9-[(5R,7R,8R,12aR,14R,15S,15aR,16R)-2,10,15,16-tetrahydroxy-2,10-dioxido-14-(pyrimidin-4-ylamino)decahydro-5,8-methanocyclopenta[1][1,3,6,9,11,2,10]pentaoxadiphosphacyclotetradecin-7-yl]-1,9-dihydro-6H-purin-6-one] was run?
The pEC50 was under 4.60.

With Nc1nc2c(ncn2[C@@H]2O[C@@H]3COP(=O)(O)O[C@@H]4[C@@H](COP(=O)(O)O[C@@H]2[C@@H]3O)C[C@@H](Nc2ncncc2F)[C@@H]4O)c(=O)[nH]1 [Compound I-8, 2-amino-9-{(5R,7R,8R,12aR,14R,15S,15aR,16R)-14-[(5-fluoropyrimidin-4-yl)amino]-2,10,15,16-tetrahydroxy-2,10-dioxidodecahydro-5,8-methanocyclopenta[1][1,3,6,9,11,2,10]pentaoxadiphosphacyclotetradecin-7-yl}-1,9-dihydro-6H-purin-6-one] as the compound, how does the pEC50 read?
Its pEC50 is under 4.60.

With Nc1nc2c(ncn2[C@@H]2O[C@@H]3COP(=O)(O)O[C@H]4C[C@H](Oc5ccccn5)C[C@@H]4COP(=O)(O)O[C@@H]2[C@@H]3O)c(=O)[nH]1 [Compound I-11, 2-amino-9-[(5R,7R,8R,12aR,14R,15aS,16R)-2,10,16-trihydroxy-2,10-dioxido-14-(pyridin-2-yloxy)decahydro-5,8-methanocyclopenta[1][1,3,6,9,11,2,10]pentaoxadiphosphacyclotetradecin-7-yl]-1,9-dihydro-6H-purin-6-one] as the compound, how does the pEC50 read?
Its pEC50 is under 4.60.

How did the pEC50 turn out when Nc1cc(O[C@@H]2C[C@@H]3COP(=O)(O)O[C@@H]4[C@H](O)[C@@H](COP(=O)(O)O[C@H]3C2)O[C@H]4n2cnc3c(=O)[nH]c(N)nc32)ncn1 [Compound I-13, 2-amino-9-{(5R,7R,8R,12aR,14R,15aS,16R)-14-[(6-aminopyrimidin-4-yl)oxy]-2,10,16-trihydroxy-2,10-dioxidodecahydro-5,8-methanocyclopenta[1][1,3,6,9,11,2,10]pentaoxadiphosphacyclotetradecin-7-yl}-1,9-dihydro-6H-purin-6-one] was run?
The pEC50 was 4.60 to 5.00.

With Nc1cc(N[C@@H]2C[C@@H]3COP(=O)(O)O[C@@H]4[C@H](O)[C@@H](COP(=O)(O)O[C@H]3C2)O[C@H]4n2cnc3c(=O)[nH]c(N)nc32)ncn1 [Compound I-14, 2-amino-9-{(5R,7R,8R,12aR,14R,15aS,16R)-14-[(6-aminopyrimidin-4-yl)amino]-2,10,16-trihydroxy-2,10-dioxidodecahydro-5,8-methanocyclopenta[1][1,3,6,9,11,2,10]pentaoxadiphosphacyclotetradecin-7-yl}-1,9-dihydro-6H-purin-6-one] as the compound, how does the pEC50 read?
Its pEC50 is under 4.60.

With Nc1nc2c(ncn2[C@@H]2O[C@@H]3COP(=O)(O)O[C@H]4C[C@H](Oc5cnccn5)C[C@@H]4COP(=O)(O)O[C@@H]2[C@@H]3O)c(=O)[nH]1 [Compound I-15, 2-amino-9-[(5R,7R,8R,12aR,14R,15aS,16R)-2,10,16-trihydroxy-2,10-dioxido-14-(pyrazin-2-yloxy)decahydro-5,8-methanocyclopenta[1][1,3,6,9,11,2,10]pentaoxadiphosphacyclotetradecin-7-yl]-1,9-dihydro-6H-purin-6-one] as the compound, how does the pEC50 read?
The pEC50 was under 4.60.

With Nc1nc2c(ncn2[C@@H]2O[C@@H]3COP(=O)(O)O[C@H]4C[C@H](Oc5cnsn5)C[C@@H]4COP(=O)(O)O[C@@H]2[C@@H]3O)c(=O)[nH]1 [Compound I-16, 2-amino-9-[(5R,7R,8R,12aR,14R,15aS,16R)-2,10,16-trihydroxy-2,10-dioxido-14-(1,2,5-thiadiazol-3-yloxy)decahydro-5,8-methanocyclopenta[1][1,3,6,9,11,2,10]pentaoxadiphosphacyclotetradecin-7-yl]-1,9-dihydro-6H-purin-6-one] as the compound, how does the pEC50 read?
Its pEC50 is 4.60 to 5.00.

With Nc1nc2c(ncn2[C@@H]2O[C@@H]3COP(=O)(S)O[C@@H]4[C@@H](COP(=O)(S)O[C@@H]2[C@@H]3O)C[C@@H](Nc2ccncn2)[C@@H]4F)c(=O)[nH]1 (stereo partly drawn) [Compound I-20a, 2-amino-9-[(2S,5R,7R,8R,10S,12aR,14R,15S,15aR,16R)-15-fluoro-16-hydroxy-2,10-dioxido-14-(pyrimidin-4-ylamino)-2,10-disulfanyldecahydro-5,8-methanocyclopenta[1][1,3,6,9,11,2,10]pentaoxadiphosphacyclotetradecin-7-yl]-1,9-dihydro-6H-purin-6-one] as the compound, how does the pEC50 read?
The pEC50 was 5.00 to 6.00.

Nc1nc2c(ncn2[C@@H]2O[C@@H]3COP(=O)(O)O[C@H]4C[C@H](Nc5ncnc6scnc56)C[C@@H]4COP(=O)(O)O[C@@H]2[C@@H]3O)c(=O)[nH]1 [Compound I-26, 2-amino-9-[(5R,7R,8R,12aR,14R,15aS,16R)-2,10,16-trihydroxy-2,10-dioxido-14-([1,3]thiazolo[5,4-d]pyrimidin-7-ylamino)decahydro-5,8-methanocyclopenta[1][1,3,6,9,11,2,10]pentaoxadiphosphacyclotetradecin-7-yl]-1,9-dihydro-6H-purin-6-one] was tested. Which pEC50 did it give?
The pEC50 was under 4.60.

How did the pEC50 turn out when Cc1nccc(N[C@@H]2C[C@@H]3COP(=O)(O)O[C@@H]4[C@H](O)[C@@H](COP(=O)(O)O[C@H]3C2)O[C@H]4n2cnc3c(=O)[nH]c(N)nc32)n1 [Compound I-28, 2-amino-9-{(5R,7R,8R,12aR,14R,15aS,16R)-2,10,16-trihydroxy-14-[(2-methylpyrimidin-4-yl)amino]-2,10-dioxidodecahydro-5,8-methanocyclopenta[1][1,3,6,9,11,2,10]pentaoxadiphosphacyclotetradecin-7-yl}-1,9-dihydro-6H-purin-6-one] was run?
Its pEC50 is 4.60 to 5.00.

Cn1ccnc(N[C@@H]2C[C@@H]3COP(=O)(O)O[C@@H]4[C@H](O)[C@@H](COP(=O)(O)O[C@H]3C2)O[C@H]4n2cnc3c(=O)[nH]c(N)nc32)c1=O [Compound I-29, 2-amino-9-{(5R,7R,8R,12aR,14R,15aS,16R)-2,10,16-trihydroxy-14-[(4-methyl-3-oxo-3,4-dihydropyrazin-2-yl)amino]-2,10-dioxidodecahydro-5,8-methanocyclopenta[1][1,3,6,9,11,2,10]pentaoxadiphosphacyclotetradecin-7-yl}-1,9-dihydro-6H-purin-6-one] was tested. Which pEC50 did it give?
Its pEC50 is under 4.60.

With Nc1nc2c(nnn2[C@@H]2O[C@@H]3COP(=O)(S)O[C@H]4C[C@H](Oc5ccncn5)C[C@@H]4COP(=O)(S)O[C@@H]2[C@@H]3O)c(=O)[nH]1 (stereo partly drawn) [Compound I-30a, 5-amino-3-[(2S,5R,7R,8R,10S,12aR,14R,15aS,16R)-16-hydroxy-2,10-dioxido-14-(pyrimidin-4-yloxy)-2,10-disulfanyldecahydro-5,8-methanocyclopenta [1][1,3,6,9,11,2,10]pentaoxadiphosphacyclotetradecin-7-yl]-3,6-dihydro-7H-[1,2,3]triazolo[4,5-d]pyrimidin-7-one] as the compound, how does the pEC50 read?
Its pEC50 is 5.00 to 6.00.

How did the pEC50 turn out when CN(c1ncncn1)[C@@H]1C[C@@H]2COP(=O)(O)O[C@@H]3[C@H](O)[C@@H](COP(=O)(O)O[C@H]2C1)O[C@H]3n1cnc2c(=O)[nH]c(N)nc21 [Compound I-33, 2-amino-9-{(5R,7R,8R,12aR,14R,15aS,16R)-2,10,16-trihydroxy-14-[methyl(1,3,5-triazin-2-yl)amino]-2,10-dioxidodecahydro-5,8-methanocyclopenta[1][1,3,6,9,11,2,10]pentaoxadiphosphacyclotetradecin-7-yl}-1,9-dihydro-6H-purin-6-one] was run?
The pEC50 was under 4.60.

same assay, conditions: Lucia luciferase signal induction, 20 hours at 37° C., read-out: Cellular THP 1 EC50

With Nc1nc2c(nnn2[C@@H]2O[C@@H]3COP(=O)(S)O[C@H]4C[C@H](Oc5ccncn5)C[C@@H]4COP(=O)(S)O[C@@H]2[C@@H]3O)c(=O)[nH]1 (stereo partly drawn) [Compound I-30b, 5-amino-3-[(2S,5R,7R,8R,10S,12aR,14R,15aS,16R)-16-hydroxy-2,10-dioxido-14-(pyrimidin-4-yloxy)-2,10-disulfanyldecahydro-5,8-methanocyclopenta[1][1,3,6,9,11,2,10]pentaoxadiphosphacyclotetradecin-7-yl]-3,6-dihydro-7H-[1,2,3]triazolo[4,5-d]pyrimidin-7-one] as the compound, how does the pEC50 read?
Its pEC50 is over 6.00.

Nc1nc2c(ncn2[C@@H]2O[C@@H]3COP(=O)(S)O[C@@H]4[C@@H](COP(=O)(S)O[C@@H]2[C@@H]3O)C[C@@H](Nc2ccncn2)[C@H]4F)c(=O)[nH]1 (stereo partly drawn) [Compound I-35a, 2-amino-9-[(2S,5R,7R,8R,10S,12aR,14R,15R,15aR,16R)-15-fluoro-16-hydroxy-2,10-dioxido-14-(pyrimidin-4-ylamino)-2,10-disulfanyldecahydro-5,8-methanocyclopenta[1][1,3,6,9,11,2,10]pentaoxadiphosphacyclotetradecin-7-yl]-1,9-dihydro-6H-purin-6-one] was tested. Which pEC50 did it give?
The pEC50 was 4.60 to 5.00.

With Nc1nc2c(ncn2[C@@H]2O[C@@H]3COP(=O)(S)O[C@@H]4[C@@H](COP(=O)(S)O[C@@H]2[C@@H]3O)C[C@@H](Nc2ccncn2)[C@H]4F)c(=O)[nH]1 (stereo partly drawn) [Compound I-35b, 2-amino-9-[(2S,5R,7R,8R,10S,12aR,14R,15R,15aR,16R)-15-fluoro-16-hydroxy-2,10-dioxido-14-(pyrimidin-4-ylamino)-2,10-disulfanyldecahydro-5,8-methanocyclopenta[1][1,3,6,9,11,2,10]pentaoxadiphosphacyclotetradecin-7-yl]-1,9-dihydro-6H-purin-6-one] as the compound, how does the pEC50 read?
Its pEC50 is 5.00 to 6.00.

pEC50: −log10 of the molar value.
